Values quoted from earlier work in patent US9260731B2 (RELIANCE INDUSTRIES LIMITED, priority 2012, dated 2016).

Tested on: biological systems
Details: Jones and Wood, 1986; cited from earlier work

n-butanol
butanol concentration highly toxic to biological systems: 2%
